Chains of the proteins cited; added tags and fusions are not shown.
ATP-dependent Clp protease proteolytic subunit (Bacillus subtilis (strain 168)), P80244, UniProt P80244, whole entry, looked up: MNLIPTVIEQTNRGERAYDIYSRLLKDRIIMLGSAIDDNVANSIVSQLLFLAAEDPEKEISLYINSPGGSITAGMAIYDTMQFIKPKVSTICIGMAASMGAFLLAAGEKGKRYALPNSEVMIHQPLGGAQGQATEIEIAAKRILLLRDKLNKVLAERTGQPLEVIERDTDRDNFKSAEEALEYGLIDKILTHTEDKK

# Screens as filed in PubChem.
# Many of the other results were omitted from the sample, so hits are more common in it than they were.
# ClpP mod: qHTS Assay for Activators of ClpP. Potency, µM (doses to about 57.5 µM), for inactives: at the top dose activity change, negative = active. 1.9% of 340,000 active. ATP-dependent Clp protease proteolytic subunit (Bacillus subtilis (strain 168)), P80244. purified B. subtilis ClpP, FRET peptide cleavage, 20 min; active = well fitted falling curve with a large enough effect; inconclusive = small, poorly fitted or top-dose-only effect; inactive = no such curve, though single readings can be large or run the other way; note: potency is the fitted concentration of half-maximal effect; the source files actives as falling curves though it sought activators and does not explain the sign; nearly all actives have a fitted effect of over 65% in size
#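 Buffer: 100 mM Tris/HCl pH8, 100 mM KCl, 0.05% low protease BSA, 2.5% glycerol, 0.01% Tween-20. ClpP 10 microg/mL final; 20 min RT; delta FRET normalized to ADEP and DMSO controls.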
# Rango-impB inh: prevents formation of the Rango-importin beta complex; Rango CFP/YFP FRET sensor + importin beta, 45 min; Q14974; Potency, µM (doses to about 92.2 µM), without a hit: at the top dose inhibition of complex formation; 0.031% of 340,000 active;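 note: potency is the fitted concentration of half-maximal effect; 0% = DMSO wells and 100% = buffer wells lacking importin beta; nearly all actives have a fitted effect of over 15% in size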
#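 FRET biosensor Rango (snurportin 1 IBB between N-terminal EYFP and C-terminal Cerulean), 50 nM in PBS/1 mM DTT/0.02% Tween-20/0.1% BSA, preincubated 5 min RT with compound; 0.125 microM importin beta added, 45 min RT, CFP/YFP FRET ratio read.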
# Rango dissoc inh: prevents RanGTP from dissociating the Rango-importin beta complex; 0.071% of 340,000 active; Biochemical FRET Rango-importin beta, RanGTP-induced dissociation; O95149+P62826; Potency, µM (highest dose often 46.1 µM), without a hit: top-dose activity change, negative = inhibition; AID 540253; note: potency is the fitted concentration of half-maximal effect; % of control where 0% means no effect; nearly all actives have a fitted effect of over 45% in size
#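 Quantitative HTS using a FRET biosensor: 0.1 uM Rango, 0.25 uM importin beta, 0.6 uM Ran, 2 mM GTP, 0.2 uM RCC1 final, PBS with DTT, Tween-20 and BSA. Post-read taken 45 min after Ran addition.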
# CBFb-RUNX1 inh: inhibitors of human CBF-beta and RUNX1 interaction; AlphaScreen CBFb-His/RUNX1-biotin binding, biochemical; 230,000 tested, under 10 active; AID 1477; Potency, µM (doses to about 59.8 µM), for the others: at the highest dose activity, negative = inhibition, hits mostly inhibitors; Q01196+Q13951; active = well fitted curve in the direction sought with a large enough effect; inconclusive = small, poorly fitted or top-dose-only effect, or effect the other way, or another doubt; inactive = no such curve, though single readings can be large or run the other way; note: % of control where 0% means no effect
#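 His-tagged CBF-beta and biotinylated RUNX1 (30 nM each) were premixed 20 min at room temperature, exposed to compound for 15 min, then given nickel-chelate and streptavidin AlphaScreen beads (50 ng each). After 90 min, AlphaScreen signal was read.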
# MBNL1 CUG block: inhibitors of human MBNL1 binding to CUG repeat RNA. Q9NR56. Potency, µM (highest dose often 57.5 µM), for the others: top-dose activity change, negative = inhibition, usual class: inhibitors. TR-FRET MBNL1-His/biotin-(CUG)12 binding, 665/545 ratio. 0.036% of 280,000 active; active = well fitted inhibition curve with a large enough effect in the signal ratio, with a control signal flat, not every such curve was filed as active; inconclusive = small, poorly fitted or top-dose-only effect, or effect the other way, or a change in a side signal; inactive = no such curve, though single readings can be large or run the other way; the % refers to the signal ratio; note: potency is the fitted concentration of half-maximal effect; % is set by controls: 0 for no effect and ±100 for the full control effect
#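 TR-FRET between His-tagged MBNL1 and biotin-(CUG)12 RNA, detected with Tb anti-His antibody (0.055 ng/ul) and streptavidin-XL665 (5 nM), 60 min at room temperature. Compounds titrated 92 nM to 58 uM; 665/545 nm ratio normalized to buffer and complex controls.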
# The depositor's hits bear a star; ? = inconclusive; nt = not tested or not shown; ! = a repeat was not active. Unless noted, calls come from the whole dose curve.
1: COC(=O)Cn1c(=NC(=O)c2nc3ccccc3s2)sc2cc(S(N)(=O)=O)ccc21
2: Cc1nc(-c2ccc(S(=O)(=O)N3CCN(C4c5ccccc5-c5ccccc54)CC3)s2)cs1
3: COc1ccc2c(c1)CCc1sc(NC(=O)c3ccc(C)cc3)nc1-2
4: Cc1cc(C)c2nccc(/C=C/c3ccc(N(C)C)cc3)c2c1
5: N#Cc1ccc(-c2ccccc2)nc1SCC(=O)c1cc2ccccc2oc1=O
6: N#Cc1nc(-c2ccc(COc3ccc(Cl)cc3)o2)oc1N1CCC(C(N)=O)CC1
Assay by compound | 1 | 2 | 3 | 4 | 5 | 6
ClpP mod | 22µM* | 28µM* | 35µM* | 2% | 1% | 32µM*
Rango-impB inh | 0% | 4% | 6% | nt | ? | nt
Rango dissoc inh | 34% | ? | -19% | nt | 16µM* | nt
CBFb-RUNX1 inh | 2% | 5% | 14% | nt | 4% | nt
MBNL1 CUG block | 19% | 3% | -10% | nt | 4% | nt

7: Cc1ccc(OCc2ccc(-c3nc(C#N)c(N4CCN(c5cccc(Cl)c5)CC4)o3)o2)cc1
8: N#Cc1nc(COc2ccc(-c3ccccc3)cc2)oc1N1CCC(C(N)=O)CC1
9: N#Cc1nc(-c2ccc(OCc3ccccc3)cc2)oc1N1CCC(C(N)=O)CC1
10: N#Cc1nc(COc2ccc(Cl)cc2)oc1N1CCN(Cc2ccccc2)CC1
11: COc1cccc(-n2c(SCC(=O)Nc3nnc(C)s3)nc3c([nH]c4ccccc43)c2=O)c1
12: COC(=O)Cc1c(C)nc2nc(-c3ccc(Cl)cc3)[nH]n2c1=O
Assay by compound | 7 | 8 | 9 | 10 | 11 | 12
ClpP mod | 10% | -3% | 3.5µM*! | 28µM* | -16% | -24%
Rango-impB inh | nt | nt | 0% | -1% | nt | 0%
Rango dissoc inh | nt | nt | 2% | -8% | nt | -6%
CBFb-RUNX1 inh | nt | nt | 0% | ? | nt | -21%
MBNL1 CUG block | nt | nt | 13% | -3% | nt | -14%

# Another view of four compounds above:
# Second line of a record: ClpP mod, Rango-impB inh, Rango dissoc inh, CBFb-RUNX1 inh, MBNL1 CUG block
2) Cc1nc(-c2ccc(S(=O)(=O)N3CCN(C4c5ccccc5-c5ccccc54)CC3)s2)cs1
  28µM*, 4%, ?, 5%, 3%
4) Cc1cc(C)c2nccc(/C=C/c3ccc(N(C)C)cc3)c2c1
  2%, nt, nt, nt, nt
1) COC(=O)Cn1c(=NC(=O)c2nc3ccccc3s2)sc2cc(S(N)(=O)=O)ccc21
  22µM*, 0%, 34%, 2%, 19%
12) COC(=O)Cc1c(C)nc2nc(-c3ccc(Cl)cc3)[nH]n2c1=O
  -24%, 0%, -6%, -21%, -14%

# (next part)
13: COCc1cc(=O)n2[nH]c(-c3ccc(C)cc3)cc2n1
14: CCc1c(C)nc2cc(-c3ccc(OC)cc3)[nH]n2c1=O
15: CCOC(=O)Cc1c(C)nc2cc(-c3ccc(Cl)cc3)[nH]n2c1=O
16: CCOC(=O)CCc1c(C)nc2cc(-c3ccc(F)cc3)[nH]n2c1=O
17: CCOC(=O)Cc1cc(=O)n2[nH]c(-c3ccc(C)cc3)cc2n1
18: CC(c1ccc(N(C)C)cc1)c1ccnc2ccccc12 (stereo unspecified)
Assay by compound | 13 | 14 | 15 | 16 | 17 | 18
ClpP mod | 20µM* | 32µM* | 28µM* | 25µM* | ? | -2%
Rango-impB inh | 0% | -1% | 2% | -1% | ? | nt
Rango dissoc inh | 19% | 5% | 1% | 0% | -4% | nt
CBFb-RUNX1 inh | -3% | 4% | 2% | 4% | -15% | nt
MBNL1 CUG block | -9% | 6% | 5% | -2% | 1% | nt

# Shown as a hit in Rango dissoc inh (from the list above):
No.	canonical_smiles	Rango-impB inh	Rango dissoc inh	CBFb-RUNX1 inh
5	N#Cc1ccc(-c2ccccc2)nc1SCC(=O)c1cc2ccccc2oc1=O	?	16µM*	4%

# (more compounds)
# Short forms – A = ClpP mod; B = Rango-impB inh; C = Rango dissoc inh; D = CBFb-RUNX1 inh; E = MBNL1 CUG block
[19] CN1CCN(C(=O)c2ccc3c(c2)N(Cc2ccc(Cl)cc2)C(=O)c2ccccc2S3(=O)=O)CC1
  A: -1%	B: nt	C: nt	D: nt	E: nt

[20] CCCCN(CCCN)c1ccc(Br)cn1
  A: -22%	B: nt	C: nt	D: nt	E: nt

[21] CCOC(=O)Cc1c(C)nc2c(-c3ccc(Cl)cc3)c[nH]n2c1=O
  A: 3.2µM*	B: 0%	C: -5%	D: -4%	E: -4%

[22] Cc1ccc2c(C(=O)CNc3nccs3)c[nH]c2c1
  A: 1%	B: nt	C: nt	D: nt	E: nt

[23] Cc1cc2c(c3oc(=O)c4ccccc4c13)CN(Cc1ccc(F)cc1)CO2
  A: -10%	B: nt	C: nt	D: nt	E: nt

[24] N#CC1(NC(=O)Cn2ncc(Cl)c(Cl)c2=O)CCCCC1
  A: nt	B: 0%	C: 10%	D: nt	E: nt

[25] Cn1c(=O)c2c(nc(Cl)n2CC(=O)NC2(C#N)CCCCC2)n(C)c1=O
  A: 28µM*	B: 0%	C: 24%	D: nt	E: nt

[26] Cc1ccc2[nH]cc(C(c3ccccc3)c3cccs3)c2c1 (stereo unspecified)
  A: -5%	B: nt	C: nt	D: nt	E: nt

[27] O=C(NCc1ccccc1Cl)c1cnc(N2CCCCC2)c2ccccc12
  A: 32µM*	B: nt	C: nt	D: nt	E: nt

[28] O=C(NCc1ccccc1Cl)c1cnc(N2CCOCC2)c2ccccc12
  A: -6%	B: nt	C: nt	D: nt	E: nt

[29] CCc1ccc(CNC(=O)c2cnc(N3CCCCC3)c3ccccc23)cc1
  A: 32µM*	B: nt	C: nt	D: nt	E: nt

[30] Cc1ccc2nc(NCc3ccccc3)c3nnnn3c2c1
  A: -23%	B: nt	C: nt	D: nt	E: nt

[31] COc1ccc(Cc2nc3c4c(ncn3n2)Oc2ccc3ccccc3c2C4c2ccc(OC)c(OC)c2)cc1 (stereo unspecified)
  A: 13µM*	B: -6%	C: 4%	D: -10%	E: 11%

[32] CC(C(=O)Nc1ncc2c(n1)CC(C)(C)CC2=O)N1C(=O)c2ccccc2C1=O (stereo unspecified)
  A: 28µM*	B: 1%	C: -5%	D: 0%	E: 6%

[33] CC1(C)CC(=O)c2cnc(NC(=O)CCc3ccccc3)nc2C1
  A: -2%	B: 0%	C: 3%	D: 3%	E: -7%

[34] CCNc1nnc(-c2ccc(C)cc2)o1
  A: 20µM*	B: 0%	C: 0%	D: 3%	E: 5%

[35] Cc1ccc(-c2nnc(-c3ccccc3)o2)cc1
  A: ?	B: -1%	C: 7%	D: 0%	E: ?

[36] COc1ccccc1N1CCN(C(=O)CSc2ncccc2-c2nc3ccccc3[nH]2)CC1
  A: ?	B: 1%	C: -3%	D: -10%	E: 13%

[37] COc1ccc(N2CCN(C(=O)CSc3ncccc3-c3nc4ccccc4[nH]3)CC2)cc1
  A: 25µM*	B: 2%	C: -12%	D: -5%	E: 35%

[38] CC(=O)c1cc2ccc(O)cc2oc1=O
  A: 4%	B: ?	C: ?	D: 0%	E: ?

[39] Cc1ccc(N=c2oc3cc(O)ccc3cc2C(N)=O)cc1
  A: 25µM*	B: ?	C: ?	D: 0%	E: ?

[40] COc1ccc(NC(=O)C2=NN(c3ccccc3)C(=O)CC2)cn1
  A: 0%	B: 52µM*	C: 0%	D: nt	E: nt

[41] Cc1ccc(-n2nc(C)c3c(C(F)(F)F)cc(-c4cccnc4)nc32)cc1C
  A: -4%	B: nt	C: nt	D: nt	E: nt

[42] CCC1(c2ccc(OC)cc2)NC(=O)N(C)C1=O (stereo unspecified)
  A: nt	B: nt	C: nt	D: 15%	E: nt

[43] CCOc1ccc(Nc2oc(-c3ccc(Cl)cc3)nc2C#N)cc1
  A: ?	B: 3%	C: -5%	D: -9%	E: -3%
